Article PMC11272584 (Nature Metabolism, 2024)

Key:
GIPR R164Q = biological target: T1, GIPR R164Q (Homo sapiens, UniProt P48546, R164Q); details: GIPR R164Q (ICL1), mean, n = 5, duplicate
T1 sequence (P48546 22-466 R164Q): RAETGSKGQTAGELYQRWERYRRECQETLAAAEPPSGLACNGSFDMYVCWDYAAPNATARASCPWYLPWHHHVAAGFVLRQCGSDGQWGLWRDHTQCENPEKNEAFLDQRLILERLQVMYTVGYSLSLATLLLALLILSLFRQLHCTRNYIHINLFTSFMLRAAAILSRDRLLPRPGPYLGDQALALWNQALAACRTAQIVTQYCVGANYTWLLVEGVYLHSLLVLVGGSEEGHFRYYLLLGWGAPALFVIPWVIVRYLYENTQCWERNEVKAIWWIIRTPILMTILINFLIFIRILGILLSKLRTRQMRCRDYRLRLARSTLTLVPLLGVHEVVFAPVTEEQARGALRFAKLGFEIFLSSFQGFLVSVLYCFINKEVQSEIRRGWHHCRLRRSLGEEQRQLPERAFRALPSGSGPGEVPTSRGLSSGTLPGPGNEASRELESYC

GIPR V99I = biological target: T2, GIPR V99I (Homo sapiens, UniProt P48546, V99I); details: HEK293A, 1 µM GIP minus vehicle, n = 4, P = 0.000746
T2 sequence (P48546 22-466 V99I): T1 sequence (P48546 22-466 R164Q) with V78I, Q143R

GIPR T25R = biological target: T3, GIPR T25R (Homo sapiens, UniProt P48546, T25R); experiment: cAMP accumulation; type: cell-based; parameters: host or cells: HEK293
T3 sequence (P48546 22-466 T25R): T1 sequence (P48546 22-466 R164Q) with T4R, Q143R

GIPR I221M = biological target: T4, GIPR I221M (Homo sapiens, UniProt P48546, I221M); experiment: cAMP accumulation; type: cell-based; parameters: host or cells: HEK293
T4 sequence (P48546 22-466 I221M): T1 sequence (P48546 22-466 R164Q) with Q143R, I200M

GIPR I299V = biological target: T5, GIPR I299V (Homo sapiens, UniProt P48546, I299V); experiment: cAMP accumulation; type: cell-based; parameters: host or cells: HEK293
T5 sequence (P48546 22-466 I299V): T1 sequence (P48546 22-466 R164Q) with Q143R, I278V

For “glucose-dependent insulinotropic polypeptide [GIP]”, the “logEC50 (Arrestin)” value (GIPR R164Q; Hill slope 1.0) was -8.9, the “Arrestin (Emax)” value (GIPR R164Q; normalized to WT GIPR) was 31 and the “Mean of ΔBRET” value (GIPR V99I) was 0.0517. The “cAMP (Emax)” value (GIPR T25R; HEK293, GIP(1–42) 1 pM–100 nM, 30 min 37 °C, mean of n = 4) was 113 % of WT GIPR activity, the “logEC50 (cAMP)” value (GIPR T25R; HEK293, Hill slope 1.0, mean of n = 4) was -10.2 and the “Signalling capacity (cAMP)” value (GIPR T25R; cAMP, relative to WT) was “over 50%”. The “cAMP (Emax)” value (GIPR I221M; HEK293, GIP(1–42) 1 pM–100 nM, 30 min 37 °C, mean of n = 5) was 112 % of WT GIPR activity, the “logEC50 (cAMP)” value (GIPR I221M; HEK293, Hill slope 1.0, mean of n = 5) was -10.5 and the “cAMP (Emax)” value (GIPR I299V; HEK293, GIP(1–42) 1 pM–100 nM, 30 min 37 °C, mean of n = 3) was 118 % of WT GIPR activity. The “logEC50 (cAMP)” value (GIPR I299V; HEK293, Hill slope 1.0, mean of n = 3) was -10.8.

Changes are numbered by the printed parent chain.
